Antibody variant affinities, Ab-91 heavy chain, assay 2

Data: MIT Lincoln Laboratory AlphaSeq set, Engelhart et al. 2022, doi:10.1038/s41597-022-01779-4, as distributed in FLAb.

Target: peptide PDVDLGDISGINAS, taken from heptad repeat 2 (HR2) of SARS-CoV-2 spike.

The variants keep the light chain, the linker and the frameworks of Ab-91 (scFv order VL, the linker GGGGSGGGGSGGGGS, VH).
VL: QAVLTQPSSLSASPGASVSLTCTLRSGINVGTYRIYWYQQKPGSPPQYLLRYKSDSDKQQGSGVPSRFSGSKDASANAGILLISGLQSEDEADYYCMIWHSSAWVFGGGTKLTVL
VH: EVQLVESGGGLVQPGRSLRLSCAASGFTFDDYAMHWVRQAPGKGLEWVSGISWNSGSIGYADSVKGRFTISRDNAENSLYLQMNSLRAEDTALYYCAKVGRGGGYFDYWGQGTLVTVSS

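Phage display of a naive human antibody library on the peptide gave the parent. The library (AAYL51) carries one to three amino acid substitutions per variant, with no insertions or deletions. AlphaSeq pools MATa yeast showing the antibodies with MATalpha yeast showing the peptide. The frequency of each diploid, read from paired DNA barcodes, reflects how well the two displayed proteins bind. Each replicate has its own calibration line, from reference interactions of the BCL2 family. The assay was run in three technical replicates.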

Substitutions are numbered in sequence along the VH above, starting at 1 (not Kabat). Every variant below is changed at S55 of the VH (sequential numbering). The Kd shown is the geometric mean over detected replicates; a lower Kd is a better binder. "nd" means that the variant was in the library but no mating with the target was seen in any replicate; the authors take this as a sign of poor binding, and no number exists. Three control strains display no target. For library AAYL51, 21% of the pairings with them gave a signal, with a median of 34 µM and one signal in twenty below 1.8 µM, so weak values seen in few replicates may be background.

changes,apparent Kd,detected
H35G+I51S+S55T,nd,0/3
S55R+V64A+Y108H,72 µM,2/3
I51L+S55N+V99N,nd,0/3
S55P+G103T+D107P,800 nM,2/3
S52D+S55W+G59W,11 µM,1/3
A33K+M34W+S55K,nd,0/3
G50T+S55Y,nd,0/3
F27G+S55Y,nd,0/3
H35R+S55P+Y108W,1.8 µM,2/3
S55A+R101V,880 nM,2/3
F27R+M34T+S55F,20 µM,1/3
M34I+S55C+G102P,nd,0/3
S52A+S55M+S57P,nd,0/3
M34W+S55C+I58F,nd,0/3
S55C+G59E+V99H,1.6 µM,1/3
S55G+F106C+Y108I,nd,0/3
G50P+S55I+G59R,nd,0/3
F27Y+S55G+G103V,38 µM,1/3
Y32L+S55T+R101Q,nd,0/3
S55Q+Y60M+V64R,100 µM,2/3
F27T+H35F+S55Y,nd,0/3
S55N+A61P,110 µM,3/3
A33Q+S55Y+Y105R,nd,0/3
A33E+S55F,nd,0/3
D31V+S55D+G103S,nd,0/3
W53H+S55K+I58L,1.1 µM,1/3
T28N+S55L+V99Q,94 µM,1/3
G26F+S55K+F106C,nd,0/3
Y32N+H35T+S55E,nd,0/3
T28G+M34E+S55M,nd,0/3
F29K+S55L+G103Q,nd,0/3
N54Y+S55H+F106I,3.8 µM,1/3
D30L+S52N+S55L,58 µM,1/3
F27N+S55M+D62W,32 µM,2/3
F29D+S55F+G56W,94 nM,1/3
S55P+I58R+K65G,40 µM,1/3
G26I+S55Y+Y105T,nd,0/3
S55D+Y60V+Y105C,nd,0/3
S55T+K65W,91 µM,1/3
S55R+D62R+Y108S,15 µM,2/3
I51G+S55F+G59E,2.0 µM,1/3
F27V+S55W+G103N,nd,0/3
F29V+H35R+S55G,420 µM,3/3
S55H+G56D+G103S,2.3 µM,3/3
S55T+V99H+Y108G,1.5 µM,3/3
S55V+D107M,nd,0/3
S55T+D107T,22 µM,2/3
S55W+K65M,150 µM,3/3
Y32E+M34Y+S55N,15 µM,2/3
H35R+S52G+S55K,nd,0/3
G26N+Y32P+S55V,17 µM,1/3
S52F+S55Q+R101Y,23 µM,2/3
N54M+S55W+V99I,nd,0/3
S55I+G56T+G102Q,43 µM,2/3
G26Q+S55I+G104C,95 µM,2/3
S52H+W53N+S55Q,99 µM,2/3
S55R+G100S+G104H,30 µM,1/3
M34R+S55N,nd,0/3
S52Y+S55I+G103H,230 µM,2/3
T28K+S55C+S57G,nd,0/3
Y32Q+S55I+G104E,nd,0/3
S55P+S57D+Y108R,5.9 µM,1/3
S55T+F106T,nd,0/3

Picked from the list: the 5 lowest averages where every replicate gave a value.

changes,apparent Kd,detected
S55T+V99H+Y108G,1.5 µM,3/3
S55H+G56D+G103S,2.3 µM,3/3
S55N+A61P,110 µM,3/3
S55W+K65M,150 µM,3/3
F29V+H35R+S55G,420 µM,3/3